The text below walks through data of patent US4145296A, “Weather-durable aqueous fire retardant stabilized against gelation” (priority 1977, dated 1979).

The conditions of the data set: additive at 3 percent weight.

For `NCCN` [Ethylenediamine, diaminoethane], the “Viscosity in centipoises at 21-28 Hrs.” value is 1050 centipoises.
